1 substance from PMC7756140 can be followed below.

Chains of the proteins cited; added tags and fusions are not shown. Residues count along the entry.
UniProt P48061, 22-89: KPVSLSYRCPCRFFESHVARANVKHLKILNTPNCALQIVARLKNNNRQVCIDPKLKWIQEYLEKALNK

Holding throughout (assay): MST
Assay [1] concerns the target CXCR4^QTY – SZ158a (E. coli).
Assay [2] addresses CXCR4^QTY – SZ146a (E. coli).
Another assay addresses CXCR4^QTY (E. coli).

As for “CXCL12 (from UniProt P48061-2 22-89) (ligand)”, the Kd (as a rule, the concentration at which binding is half-saturated) in assay [1] turned out to be 0.247 µM; in assay [2], 0.301 µM; with CXCR4^QTY (E. coli) it was 0.0173 µM.
